Earlier results in US20080076729A1, “Interferon-beta gene therapy using an improved, regulated expression system” (Schering Aktiengesellachaft, priority 2005, published 2008).

System: multiple sclerosis

B1: Recombinant interferon beta (IFN-β): recombinant IFN-β protein drug for MS introduced in 1993 (protein, UniProt P01574 22-187, looked up)
Interferon beta: MSYNLLGFLQRSSNFQCQKLLWQLNGRLEYCLKDRMNFDIPEEIKQLQQFQKEDAALTIYEMLQNIFAIFRQDSSSTGWNETIVENLLANVYHQINHLKTVLEEKLEKEDFTRGKLMSSLHLKRYYGRILHYLKAKEYSHCAWTIVRVEILRNFYFINRLTGYLRN
decrease in the number of relapses in MS patients (overall, annually): 30-37%
